Results on one molecule are retold here after patent publication US20250325508A1, “MODULATORS OF PROTEASOME DYNAMICS AND/OR FUNCTION, COMPOSITIONS, METHODS, AND THERAPEUTIC USES THEREOF” (TECHNION RESEARCH & DEVELOPMENT FOUNDATION LIMITED, priority 2022, published 2025).

This assay addresses T1, mTOR (Homo sapiens, UniProt P42345).
T1 construct: endogenous in cells; host or cells: HeLa, RT4
Briefly: Co-localization of mTOR to the lysosomal membrane. It is filed as cell-based. The following applies: Torin1 treatment. The protocol:
Cells were seeded on glass cover slips for 36 h. Following the indicated treatments, they were fixed with 4% PFA for 15 min, washed with phosphate-buffered saline (PBS) and incubated in PBS containing 10% goat serum for 1 h at room temperature, followed by 2 h incubation with the indicated primary antibody. Following extensive wash with PBS, the fixed cells were incubated with the relevant secondary antibody for 1 h, washed and mounted. Images were acquired using Zeiss LSM 700 confocal microscope (Zeiss, Oberkochen, Germany).

As for `CCC(=O)N1CCN(c2ccc(-n3c(=O)ccc4cnc5ccc(-c6cnc7ccccc7c6)cc5c43)cc2C(F)(F)F)CC1` [Torin1], the “mTOR localization to the lysosome” value is listed as “dissociation of mTOR from the lysosome”.
